Test results published in ChEMBL document CHEMBL5537208, “Discovery of Nivasorexant (ACT-539313): The First Selective Orexin-1 Receptor Antagonist (SO1RA) Investigated in Clinical Trials” (J Med Chem, 2024).

Amino acid sequences for entries named in this document (tags omitted).
UniProt P56718, whole entry: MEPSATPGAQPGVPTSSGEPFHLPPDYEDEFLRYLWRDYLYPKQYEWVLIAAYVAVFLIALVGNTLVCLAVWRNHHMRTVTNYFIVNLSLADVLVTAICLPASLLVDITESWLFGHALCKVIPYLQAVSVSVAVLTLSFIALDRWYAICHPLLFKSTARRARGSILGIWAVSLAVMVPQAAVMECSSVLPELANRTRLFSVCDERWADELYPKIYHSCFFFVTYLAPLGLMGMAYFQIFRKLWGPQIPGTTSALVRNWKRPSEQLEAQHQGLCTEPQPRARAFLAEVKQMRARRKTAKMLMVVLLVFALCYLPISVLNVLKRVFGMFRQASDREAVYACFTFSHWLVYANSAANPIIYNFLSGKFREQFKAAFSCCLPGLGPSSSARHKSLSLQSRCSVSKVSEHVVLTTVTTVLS
UniProt O43614, whole entry: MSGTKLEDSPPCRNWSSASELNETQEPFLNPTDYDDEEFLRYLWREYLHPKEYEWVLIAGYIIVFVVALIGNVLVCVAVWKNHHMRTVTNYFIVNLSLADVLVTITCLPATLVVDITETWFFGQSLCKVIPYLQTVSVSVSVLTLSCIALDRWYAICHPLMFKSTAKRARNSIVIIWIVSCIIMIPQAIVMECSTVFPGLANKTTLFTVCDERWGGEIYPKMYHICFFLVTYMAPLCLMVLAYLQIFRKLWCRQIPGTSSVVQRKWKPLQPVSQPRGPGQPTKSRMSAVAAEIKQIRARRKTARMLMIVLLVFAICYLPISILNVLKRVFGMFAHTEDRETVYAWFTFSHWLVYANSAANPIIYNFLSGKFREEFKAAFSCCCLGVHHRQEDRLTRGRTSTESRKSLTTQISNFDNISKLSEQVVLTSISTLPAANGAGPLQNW
UniProt P56719, whole entry: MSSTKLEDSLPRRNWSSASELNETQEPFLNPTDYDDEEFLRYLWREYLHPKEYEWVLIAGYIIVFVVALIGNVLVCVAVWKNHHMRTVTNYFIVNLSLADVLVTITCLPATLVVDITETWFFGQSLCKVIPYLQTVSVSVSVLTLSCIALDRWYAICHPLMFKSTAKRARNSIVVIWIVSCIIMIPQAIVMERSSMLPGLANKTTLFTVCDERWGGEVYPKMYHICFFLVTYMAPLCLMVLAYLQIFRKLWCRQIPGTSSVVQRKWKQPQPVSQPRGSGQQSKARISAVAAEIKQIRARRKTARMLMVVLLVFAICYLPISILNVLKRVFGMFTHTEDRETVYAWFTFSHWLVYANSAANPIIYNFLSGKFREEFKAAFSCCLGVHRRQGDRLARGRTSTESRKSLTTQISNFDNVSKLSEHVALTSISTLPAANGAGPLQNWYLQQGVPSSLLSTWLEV

What was measured:
Format in all cases: cell-based
[1] = species: Homo sapiens
[2] = target: Orexin/Hypocretin receptor type 1 (Rattus norvegicus) (UniProt P56718); details: CHO, filed as antagonist, time 120.0 min
[3] = target: Orexin receptor type 2 (Homo sapiens, UniProt O43614); details: CHO, filed as antagonist, time 120.0 min
[4] = target: Orexin receptor type 2 (Rattus norvegicus) (UniProt P56719); details: CHO, filed as antagonist, time 120.0 min

Compound | Ratio [1] | Kb [2] [µM] | Kb [3] [µM] | Kb [4] [µM]
Cc1ccc(C(=O)N2CCOC[C@H]2Cc2cccc(-n3nccn3)c2)c(-n2nccn2)c1 [NIVASOREXANT] | 61 | 0.0007 | – | –
Cc1ccc(C(=O)N2CCOC[C@H]2Cc2cc(-n3nccn3)ccc2F)c(-n2nccn2)c1 | – | 0.0007 | 0.071 | 0.068
